Literature values as cited in US20100311751A1, “SOLID DISPERSIONS CONTAINING AN APOPTOSIS-PROMOTING AGENT” (ABBOTT LABORATORIES, priority 2009, published 2010).

Sequences of proteins named here, by UniProt entry; tags and fusion partners are left off.
UniProt P10415, whole entry: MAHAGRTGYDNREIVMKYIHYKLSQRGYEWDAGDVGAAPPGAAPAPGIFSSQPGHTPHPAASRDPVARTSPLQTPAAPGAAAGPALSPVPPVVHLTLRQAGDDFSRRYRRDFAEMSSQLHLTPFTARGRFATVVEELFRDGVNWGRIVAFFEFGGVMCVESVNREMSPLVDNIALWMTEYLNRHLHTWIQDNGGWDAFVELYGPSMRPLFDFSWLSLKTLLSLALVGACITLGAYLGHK

Target: Bcl-2 (Homo sapiens, UniProt P10415)
Details: read-out: binding affinity (Ki) to Bcl-2; cited from earlier work

Q: With `CC1(C)CCC(c2ccc(Cl)cc2)=C(CN2CCN(c3ccc(C(=O)NS(=O)(=O)c4ccc(N[C@H](CCN5CCOCC5)CSc5ccccc5)c(S(=O)(=O)C(F)(F)F)c4)cc3)CC2)C1` [ABT-263] as the molecule, how does the Ki read?
A: The Ki was under 1 nM.
